A word on the IC50: it is the point on the concentration scale where inhibition reaches its midpoint.

For the assay, the target named is recombinant human GST-Syk (Homo sapiens (Human), UniProt P43405). Nature of the assay: Homogeneous Time-Resolved Fluorescence (HTRF) assay for the recombinant human Syk enzyme. The format is biochemical. The following applies: recombinant human GST-Syk 5 pM, ATP 25 μM, read-out: rhSyk IC50. How it is done:
Syk inhibition may be determined using the following assay protocol: Homogeneous Time-Resolved Fluorescence (HTRF) Assay for the Recombinant Human Syk Enzyme: A recombinant GST-hSyk fusion protein was used to measure potency of compounds to inhibit human Syk activity. […] To initiate the reaction the biotinylated substrate peptide (250 nM final concentration) that contains the phosphorylation site for Syk was added with magnesium (5 mM final concentration) and ATP (25 μM final concentration). […] Final volume of the quenching solution was 10 μL.

As for `Cc1cc(Nc2cc(C(F)F)ccn2)nc(-c2ccc(C(C)(O)[C@H]3CC[C@H](C(=O)OCOC(=O)C(C)(C)C)CC3)nc2)c1` (single isomer, unassigned) [Example 21-1, [(2,2-dimethylpropanoyl)oxy]methyl trans-4-[(1R or 1S)-1-(6-{[4-(difluoromethyl)pyridin-2-yl]amino}-4-methyl-2,3′-bipyridin-6′-yl)-1-hydroxyethyl] cyclohexanecarboxylate], the IC50 worked out at 71 nM.

Source of the values: patent US9145391B2, “Bipyridylaminopyridines as Syk inhibitors” (Merck Sharp & Dohme Corp., priority 2011, dated 2015).
